Values quoted from earlier work in patent publication US20150148304A1, “Novel Peptides and Analogs for Use in the Treatment of Macrophage Activation Syndrome” (Soligenix, Inc., priority 2013, published 2015).

Details: oral administration; cited from earlier work

Oc1ccc2c3c1O[C@H]1[C@H](O)CC[C@@]4(O)[C@@H](C2)N(CC2CC2)CC[C@]314 [6-β-naltrexol]
time of peak plasma levels after dosing: one
